Results published in ChEMBL document CHEMBL1129409, “5-HT1D receptor agonist properties of novel 2-[5-[[(trifluoromethyl)sulfonyl]oxy]indolyl]ethylamines and their use as synthetic intermediates” (J Med Chem, 1996).

Chains of the proteins cited; added tags and fusions are not shown.
UniProt P08908, whole entry: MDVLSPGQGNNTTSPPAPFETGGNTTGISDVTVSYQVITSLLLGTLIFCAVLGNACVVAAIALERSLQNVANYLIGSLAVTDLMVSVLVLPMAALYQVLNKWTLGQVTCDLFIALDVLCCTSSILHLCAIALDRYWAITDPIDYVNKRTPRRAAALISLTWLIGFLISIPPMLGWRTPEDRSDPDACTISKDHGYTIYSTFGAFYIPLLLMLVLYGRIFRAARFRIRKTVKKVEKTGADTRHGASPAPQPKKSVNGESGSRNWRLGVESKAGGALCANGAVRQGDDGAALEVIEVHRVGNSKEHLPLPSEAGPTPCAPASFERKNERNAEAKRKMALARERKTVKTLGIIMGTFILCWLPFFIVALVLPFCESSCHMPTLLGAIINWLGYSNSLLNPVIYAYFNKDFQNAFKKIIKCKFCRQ

Molecular target: 5-hydroxytryptamine receptor 1A (Homo sapiens, UniProt P08908)
Test: Compound was tested for binding affinity against cloned human 5-hydroxytryptamine 1A receptor expressed in CHO-K1 cells.
Format: cell-based
In short: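 CHO cell membranes expressing cloned human 5-HT1A, 5-HT1Dα or 5-HT1Dβ receptors, or rat D2 receptors (20-60 µg protein). Radioligands: [3H]-8-OH-DPAT (5-HT1A), [3H]-5-HT (5-HT1D), [3H]U-86170 (D2). Buffers at pH 7.4: 50 mM Tris/5 mM MgCl2 (5-HT1A); the same with 0.1% ascorbic acid (5-HT1D); 20 mM HEPES/10 mM MgSO4 (D2). Nonspecific binding defined with lisuride, serotonin and haloperidol respectively. 11 concentrations in duplicate, 1 h at room temperature (5-HT1D protected from light), filtration.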

Structure (SMILES): CNS(=O)(=O)Cc1ccc2[nH]cc(CCN(C)C)c2c1
- pKi: 6.47

pKi: −log10 of the molar value.
